Earlier results as cited in PMC3602246 (BMC Pharmacology & Toxicology, 2013).

System: MOR
Details: read-out: Ki, affinity binding to the MOR; literature values, one reference per ligand; ref Reference column of Table S1; cited from earlier work

CN(C(=O)Cc1ccccc1)[C@H](CN1CCCC1)c1ccccc1
Ki: > 1000 nM
